Only a part is listed here, and it is no random draw. Active and inactive are the calls of the source.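 The calls were made as follows: active = signal ratio slope over the read window, or its plate-corrected B-score, at least 3 SD from the plate mean, either direction; inactive = the rest.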
molecular target: ATP-sensitive inward rectifier potassium channel 1 (Homo sapiens) (UniProt P48048); assay: Kir1.1 channel activity modulation, library screen – cell-based, thallium flux, MLSMR library, primary screen (AID 1918); settings: Tet-inducible ROMK, thallium flux fluorescence; at 10 µM; actives lie on both sides;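 also: B-score of the F/F0 ratio slope over 7 to 12 s after thallium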

Chains of the proteins cited; added tags and fusions are not shown.
UniProt P48048, whole entry: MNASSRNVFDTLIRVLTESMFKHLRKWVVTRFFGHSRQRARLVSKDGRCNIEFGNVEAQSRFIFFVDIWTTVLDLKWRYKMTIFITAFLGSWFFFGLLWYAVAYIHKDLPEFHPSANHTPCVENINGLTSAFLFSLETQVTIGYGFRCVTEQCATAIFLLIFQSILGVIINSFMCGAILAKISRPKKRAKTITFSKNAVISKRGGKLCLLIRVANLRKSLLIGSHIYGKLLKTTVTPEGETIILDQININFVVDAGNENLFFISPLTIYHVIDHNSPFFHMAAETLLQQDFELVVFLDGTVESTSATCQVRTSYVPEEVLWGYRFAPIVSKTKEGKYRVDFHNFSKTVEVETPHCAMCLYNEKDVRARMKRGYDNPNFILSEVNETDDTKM

SMILES	B-score
COc1ccc(NC2CCN(C(=O)OC(C)(C)C)CC2)cc1	inactive: 0.752
CN1CCN(CCOC(=O)C(O)(c2ccccc2)c2ccccc2)CC1	inactive: 1.55
O=C(NCC1(N2CCCCC2)CCCCC1)c1cccc([N+](=O)[O-])c1	inactive: 0.307
CC(C)c1ccc(NC2CCN(C(=O)OC(C)(C)C)CC2)cc1	inactive: 0.112
COc1ccc(CN(CCCl)CCCl)cc1Cl	inactive: -0.149
CN(C)c1cccc(C(=O)NCC2(N3CCCCC3)CCCCC2)c1	inactive: 0.253
O=C(OC1CN2CCC1CC2)C1c2ccccc2Oc2ccccc21 (configuration not stated)	inactive: -2.82
CCOC(=O)N1CCC(Nc2ccc(OC)cc2)CC1	inactive: -0.31
COc1ccc(C(=O)NCC2(N3CCCCC3)CCCCC2)c(OC)c1OC	inactive: -0.167
COc1ccc(NC2CCN(CCc3ccccc3)CC2)c(OC)c1	inactive: -2.14
CCN1CCC(Nc2cccc(F)c2)CC1	inactive: -0.375
CN(C)c1ccc(C(=O)NCC2(N3CCCCC3)CCCCC2)cc1	inactive: -0.192
COc1cc(OC)cc(C(=O)NCC2(N3CCOCC3)CCCCC2)c1	inactive: 1.29
CC(C)(C)OC(=O)N1CCC(Nc2ccccc2)CC1	inactive: 0.151
O=C(OC1CN2CCC1CC2)C1c2ccccc2C=Cc2ccccc21 (configuration not stated)	inactive: -0.774
COc1ccc(C(=O)NCC2(N3CCOCC3)CCCCC2)cc1OC	inactive: 1
N#Cc1ccc(C(=O)NCC2(N3CCCCC3)CCCCC2)cc1	inactive: 1.29

From PubChem BioAssay AID1918 (Vanderbilt High Throughput Screening Facility, 2009)
